Tested on: MDA-MB-435 human breast cancer
Experiment: MDA-MB-435 human breast cancer transplanted in nude mice
Assay type: in vivo, BALB/C nude mice
Conditions: 50 mg/kg, ip × 1
Experimental: The injection of the invention (10 g/100 ml), Paclitaxel injection (30 mg/5 ml) and normal saline
MDA-MB-435 human breast cancer: inoculated in BALB/C nude mice (SPF grade), 18-20 g, female
Tumor blocks of well-grown MDA-MB-435 cancer were homogenized in normal saline to obtain cell suspensions in the concentration of 1-2×10^7 cells/ml. Each nude mouse was inoculated with 0.2 ml of the suspension at the right axilla subcutaneously, and the mice were grouped randomly. The administration began from the 7th day after the inoculation. 18 Days after the inoculation, the mice were sacrificed. Tumor blocks were taken out and weighed. Differences of tumor weight between each experimental group and the control group were compared, and tumor inhibition rates and Q values were calculated.

CC(=O)O[C@H]1C(=O)[C@@]2(C)[C@H]([C@H](OC(=O)c3ccccc3)[C@]3(O)C[C@H](OC(=O)[C@H](O)[C@@H](NC(=O)c4ccccc4)c4ccccc4)C(C)=C1C3(C)C)[C@]1(OC(C)=O)CO[C@@H]1C[C@@H]2O [Taxol, Paclitaxel]
Weight of tumor (g) x ± SD: 1.01 ± 0.33 g
